{
  "source": "paper PMC4376459",
  "about": "“CXCR3 antagonist VUF10085 binds to an intrahelical site distinct from that of the broad spectrum antagonist TAK-779” (British Journal of Pharmacology, 2015)",
  "key": {"CXCR3 F131A [1]": {"target": "T1, CXCR3 F131A (Homo sapiens, UniProt P49682, F131A)", "T1 construct": "expressed in transfected cells; host or cells: murine pre-B cell line L1.2, transient transfection", "T1 sequence (P49682 1-368 F131A)": "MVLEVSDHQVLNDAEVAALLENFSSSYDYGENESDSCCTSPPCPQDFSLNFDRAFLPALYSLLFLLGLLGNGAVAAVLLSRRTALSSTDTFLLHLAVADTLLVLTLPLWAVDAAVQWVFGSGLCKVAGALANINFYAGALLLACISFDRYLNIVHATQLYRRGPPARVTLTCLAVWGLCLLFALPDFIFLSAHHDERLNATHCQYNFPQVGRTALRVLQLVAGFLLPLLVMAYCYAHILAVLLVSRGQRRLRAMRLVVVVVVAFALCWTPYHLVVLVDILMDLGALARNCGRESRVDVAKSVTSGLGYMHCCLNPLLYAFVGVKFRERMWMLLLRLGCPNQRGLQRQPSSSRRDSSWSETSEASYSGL", "test": "Chemotaxis assay, L1.2 transfectants migrating to CXCL11", "assay_type": "cell-based", "details": "30 nM CXCL11", "experimental": "(§1) A previously described pcDNA3 plasmid containing human wild type (WT) CXCR3 cDNA with an HA epitope tag encoded at the N terminus (Meiser et al., [2008]) was used as a template for the generation of point mutants by PCR using the QuikChange II site-directed mutagenesis kit (Stratagene, Amsterdam, the Netherlands). All constructs were verified by DNA sequencing (Eurofins MWG Operon, Ebersberg, Germany) before use. L1.2 cells were transiently transfected by electroporation with 1 μg of vector DNA/10^6 cells at 330V, 975μF and incubated overnight in medium supplemented with 10 mM of sodium butyrate to enhance gene expression.\n(§2) Assays of chemotactic responsiveness were carried out as previously described (Vaidehi et al., [2009]) using 96-well ChemoTx® plates with 5 μm pores (Neuroprobe, Gaithersburg, MD, USA). Migrating cells were detected by the use of CellTiter Glo® Dye (Promega, Southampton, UK) and resulting luminescence measured using a TopCount scintillation counter (PerkinElmer, Waltham, MA, USA). Basal migration of cells to buffer alone was subtracted from the resulting data, with individual results expressed as a percentage of the total cells applied to the filter. In all experiments, each data point was assayed in duplicate. In every experiment, cells transiently expressing WT CXCR3 were used as a positive control."}, "CXCR3 H202A (ECL2) [2]": {"target": "T2, CXCR3 H202A (ECL2) (Homo sapiens, UniProt P49682, H202A)", "T2 construct": "expressed in transfected cells; host or cells: murine pre-B cell line L1.2, transient transfection", "T2 sequence (P49682 1-368 H202A)": "T1 sequence (P49682 1-368 F131A) with A131F, H202A", "test": "Chemotaxis assay, L1.2 transfectants migrating to CXCL11", "assay_type": "cell-based", "details": "30 nM CXCL11, read-out: IC50 chemotaxis (mean ± SEM)", "experimental": "as §1, §2"}, "CXCR3 I279A [3]": {"target": "T3, CXCR3 I279A (Homo sapiens, UniProt P49682, I279A)", "T3 construct": "expressed in transfected cells; host or cells: murine pre-B cell line L1.2, transient transfection", "T3 sequence (P49682 1-368 I279A)": "T1 sequence (P49682 1-368 F131A) with A131F, I279A", "test": "Chemotaxis assay, L1.2 transfectants migrating to CXCL11", "assay_type": "cell-based", "details": "30 nM CXCL11", "experimental": "as §1, §2"}, "CXCR3 Y60A [4]": {"target": "T4, CXCR3 Y60A (Homo sapiens, UniProt P49682, Y60A)", "T4 construct": "expressed in transfected cells; host or cells: murine pre-B cell line L1.2, transient transfection", "T4 sequence (P49682 1-368 Y60A)": "T1 sequence (P49682 1-368 F131A) with Y60A, A131F", "test": "Chemotaxis assay, L1.2 transfectants migrating to CXCL11", "assay_type": "cell-based", "details": "30 nM CXCL11, read-out: IC50 chemotaxis (mean ± SEM)", "experimental": "as §1, §2"}, "WT CXCR3 [5]": {"target": "T5, WT CXCR3 (Homo sapiens, UniProt P49682)", "T5 construct": "expressed in transfected cells; host or cells: murine pre-B cell line L1.2, transient transfection by electroporation", "T5 sequence (P49682 1-368)": "T1 sequence (P49682 1-368 F131A) with A131F", "test": "Chemotaxis assay, L1.2 transfectants migrating to CXCL11", "assay_type": "cell-based", "experimental": "as §1, §2"}, "CXCR3 Y308A [6]": {"target": "T6, CXCR3 Y308A (Homo sapiens, UniProt P49682, Y308A)", "T6 construct": "expressed in transfected cells; host or cells: murine pre-B cell line L1.2, transient transfection", "T6 sequence (P49682 1-368 Y308A)": "T1 sequence (P49682 1-368 F131A) with A131F, Y308A", "test": "Chemotaxis assay, L1.2 transfectants migrating to CXCL11", "assay_type": "cell-based", "details": "30 nM CXCL11", "experimental": "(§3) A previously described pcDNA3 plasmid containing human wild type (WT) CXCR3 cDNA with an HA epitope tag encoded at the N terminus ([…] et al., [2008]) was used as a template for the generation of point mutants by PCR using the QuikChange II site-directed mutagenesis kit (Stratagene, Amsterdam, the Netherlands). All constructs were verified by DNA sequencing (Eurofins MWG Operon, Ebersberg, Germany) before use. L1.2 cells were transiently transfected by electroporation with 1 μg of vector DNA/10^6 cells at […], 975μF and incubated overnight in medium supplemented with 10 mM of sodium butyrate to enhance gene expression. Assays of chemotactic responsiveness were carried out as previously described ([…] et al., [2009]) using 96-well ChemoTx® plates with 5 μm pores (Neuroprobe, Gaithersburg, MD, USA). Migrating cells were detected by the use of CellTiter Glo® Dye (Promega, Southampton, UK) and resulting luminescence measured using a TopCount scintillation counter (PerkinElmer, Waltham, MA, USA). Basal migration of cells to buffer alone was subtracted from the resulting data, with individual results expressed as a percentage of the total cells applied to the filter. In all experiments, each data point was assayed in duplicate. In every experiment, cells transiently expressing WT CXCR3 were used as a positive control."}, "D112N-CXCR3 [7]": {"target": "T7, D112N-CXCR3 (Homo sapiens, UniProt P49682, D112N)", "T7 construct": "expressed in transfected cells; host or cells: murine pre-B cell line L1.2, transient transfection", "T7 sequence (P49682 1-368 D112N)": "T1 sequence (P49682 1-368 F131A) with D112N, A131F", "test": "Chemotaxis assay, L1.2 transfectants migrating to CXCL11", "assay_type": "cell-based", "details": "10 nM CXCL11, read-out: IC50 for inhibition of migration", "experimental": "as §3"}, "CXCR3 F131A [8]": {"target": "T1, CXCR3 F131A", "test": "Whole-cell 125I-CXCL11 binding assay, L1.2 transfectants", "details": "0.1 nM 125I-CXCL11, read-out: IC50 ligand binding (mean ± SEM)", "experimental": "as §1\n(§4) Whole-cell binding assays on transiently transfected L1.2 cells were performed as described previously (Vaidehi et al., [2009]) using 0.1 nM ^125I-CXCL11 (Perkin Elmer) and increasing concentrations of unlabeled CXCL11 or antagonist. Cell-associated radioactivity was counted in a Canberra Packard Cobra 5010 gamma counter (Canberra Packard, Pangebourne, UK). Curve fitting and subsequent data analysis was carried out using the program PRISM (GraphPad Software, Inc., San Diego, CA, USA) and IC50 values were obtained by non-linear regression analysis. In all experiments, each data point was assayed in duplicate, with each individual experiment repeated three times. Background binding levels obtained in the presence of a 1000–3000 molar excess of unlabelled chemokine were subtracted from each data point and data are presented as the percentage of counts obtained in the absence of competing ligand. KD values and the number of binding sites per cell were calculated from homologous binding curves prepared in Graph Pad Prism (La Jolla, CA, USA) as previously described (Nedjai et al., [2011])."}, "CXCR3 H202A (ECL2) [9]": {"target": "T2, CXCR3 H202A (ECL2)", "test": "Whole-cell 125I-CXCL11 binding assay, L1.2 transfectants", "details": "0.1 nM 125I-CXCL11, read-out: IC50 ligand binding (mean ± SEM)", "experimental": "as §1, §4"}, "CXCR3 I279A [10]": {"target": "T3, CXCR3 I279A", "test": "Whole-cell 125I-CXCL11 binding assay, L1.2 transfectants", "details": "0.1 nM 125I-CXCL11, read-out: IC50 ligand binding (mean ± SEM)", "experimental": "as §1, §4"}, "CXCR3 Y308A [11]": {"target": "T6, CXCR3 Y308A", "test": "Whole-cell 125I-CXCL11 binding assay, L1.2 transfectants", "details": "0.1 nM 125I-CXCL11", "experimental": "as §1, §4"}, "CXCR3 Y60A [12]": {"target": "T4, CXCR3 Y60A", "test": "Whole-cell 125I-CXCL11 binding assay, L1.2 transfectants", "details": "0.1 nM 125I-CXCL11, read-out: IC50 ligand binding (mean ± SEM)", "experimental": "as §1, §4"}, "D112N-CXCR3 [13]": {"target": "T7, D112N-CXCR3", "test": "Whole-cell 125I-CXCL11 binding assay, L1.2 transfectants", "details": "D112N-CXCR3 transfectants (Figure 1); read-out: IC50 for displacement of 125I-CXCL11", "experimental": "as §1, §4"}, "WT CXCR3 [14]": {"target": "T5, WT CXCR3", "test": "Whole-cell 125I-CXCL11 binding assay, L1.2 transfectants", "experimental": "as §1, §4"}},
  "note": "Substitutions are numbered along the chain they refer to.",
  "data": [
    {"smiles": "CCOc1ccc(-n2c(C(C)N(Cc3cccnc3)C(=O)Cc3ccc(OC(F)(F)F)cc3)nc3ncccc3c2=O)cc1", "note": "(stereo not drawn) [VUF 10085, N-1R-[3-(4-ethoxy-phenyl)-4-oxo-3,4-dihydro-pyrido[2,3-d]pyrimidin-2-yl]-ethyl-N-pyridin-3-ylmethyl-2-(4-trifluoromethoxy-phenyl)-acetamide]", "values": [
      {"measurement": "IC50 chemotaxis (mean ± SEM)", "setting": "CXCR3 F131A [1]", "result": "calculation of an IC50 value impossible"},
      {"measurement": "IC50", "setting": "CXCR3 H202A (ECL2) [2]", "result": "373 ± 14", "unit": "nM"},
      {"measurement": "increase in IC50 value, chemotaxis", "setting": "CXCR3 I279A [3]; I279A versus WT", "result": "threefold"},
      {"measurement": "IC50", "setting": "CXCR3 I279A [3]; I279A, read-out: IC50 chemotaxis (mean ± SEM)", "result": "676 ± 28", "unit": "nM"},
      {"measurement": "IC50", "setting": "CXCR3 Y60A [4]", "result": "292 ± 13", "unit": "nM"},
      {"measurement": "IC50", "setting": "WT CXCR3 [5]; WT CXCR3, 30 nM CXCL11, read-out: IC50 chemotaxis (mean ± SEM)", "result": "198 ± 35", "unit": "nM"},
      {"measurement": "IC50", "setting": "WT CXCR3 [5]; WT CXCR3 transfectants, 10 nM CXCL11, read-out: IC50 for inhibition of migration", "result": 380, "unit": "nM"},
      {"measurement": "IC50 chemotaxis (mean ± SEM)", "setting": "CXCR3 Y308A [6]", "result": "calculation of an IC50 value impossible"},
      {"measurement": "IC50", "setting": "D112N-CXCR3 [7]", "result": 2520, "unit": "nM"},
      {"measurement": "IC50", "setting": "CXCR3 F131A [8]", "result": "161 ± 40", "unit": "nM"},
      {"measurement": "IC50", "setting": "CXCR3 H202A (ECL2) [9]", "result": "299 ± 120", "unit": "nM"},
      {"measurement": "IC50", "setting": "CXCR3 I279A [10]", "result": "483 ± 210", "unit": "nM"},
      {"measurement": "IC50 ligand binding (mean ± SEM)", "setting": "CXCR3 Y308A [11]", "result": "no IC50 value could be calculated"},
      {"measurement": "IC50", "setting": "CXCR3 Y60A [12]", "result": "236 ± 54", "unit": "nM"},
      {"measurement": "IC50", "setting": "D112N-CXCR3 [13]", "result": 2340, "unit": "nM"},
      {"measurement": "IC50", "setting": "WT CXCR3 [14]; WT CXCR3, 0.1 nM 125I-CXCL11, read-out: IC50 ligand binding (mean ± SEM)", "result": "241 ± 27", "unit": "nM"},
      {"measurement": "IC50", "setting": "WT CXCR3 [14]; WT CXCR3 transfectants (Figure 1), read-out: IC50 for displacement of 125I-CXCL11", "result": 169, "unit": "nM"}
    ]}
  ]
}
